# Results taken from US12257238B2, “Magnesium biotinate compositions and methods of use” (Nutrition21, LLC, priority 2016, dated 2025).
# Legend:
# [1] = system: peripheral blood mononuclear cells (PBMC); assay: Mitochondrial metabolic activity, colorimetric MTT assay; assay type: cell-based; settings: biotin-starved cultures, 0.05 mg/L and serial dilutions, 24 hours; compared to D-biotin, FIG. 5
# [2] = system: acetyl-CoA carboxylase ACC-2; settings: rats, 0.01, 1, 100 mg/kg; compared to biotin, FIG. 4B
structure (smiles),measurement,setting,value
O=C(O)CCCC[C@@H]1SC[C@@H]2NC(=O)N[C@@H]21 [magnesium D-biotinate],Relative mitochondrial activity (MTT),[1],"highly improved, unexpected, and significant result over the D-biotin administration"
same,acetyl-CoA carboxylase ACC-2 activity,[2],unexpectedly improved
